{"source": "patent EP0135714B1", "about": "“Sustained release compositions for biologically active materials” (MELAMINE CHEMICALS, INC., priority 1983, dated 1985)", "origin": "cited, not measured here", "details": "pH 7; cited from earlier work", "data": [{"substance": "Diammonium Phosphate", "values": [{"measurement": "Solubility (g/100g)", "result": "131 (at 15°) g/100g"}]}]}
